Experimental data reported in paper PMC5560099 (ACS infectious diseases, 2017).

The chains behind the UniProt entries cited, without tags or fusion partners. Residues count along the entry.
UniProt A0A0H3KN52, 45-302: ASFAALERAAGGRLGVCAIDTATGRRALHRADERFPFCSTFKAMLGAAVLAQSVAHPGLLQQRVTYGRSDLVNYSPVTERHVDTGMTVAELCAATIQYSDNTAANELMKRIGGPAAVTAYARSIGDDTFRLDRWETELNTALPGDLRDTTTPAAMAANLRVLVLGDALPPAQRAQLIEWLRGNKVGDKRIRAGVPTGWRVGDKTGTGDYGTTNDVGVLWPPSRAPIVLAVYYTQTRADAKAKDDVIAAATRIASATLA

Molecular target: PenA β-lactamase (Burkholderia multivorans, UniProt A0A0H3KN52)
Experiment: biochemical

NC(=O)[C@@H]1CC[C@@H]2CN1C(=O)N2OS(=O)(=O)O [avibactam] gave a Ki of 500 ± 100 nM.
